Assay results as given in ChEMBL document CHEMBL4138209, “Inhibitory effects and structural insights for a novel series of coumarin-based compounds that selectively target human CA IX and CA XII carbonic anhydrases” (Eur J Med Chem, 2018).

Chains of the proteins cited; added tags and fusions are not shown. Lines headed by an entry give the natural chain unless they say otherwise; changes in a name come on top.
UniProt P00915: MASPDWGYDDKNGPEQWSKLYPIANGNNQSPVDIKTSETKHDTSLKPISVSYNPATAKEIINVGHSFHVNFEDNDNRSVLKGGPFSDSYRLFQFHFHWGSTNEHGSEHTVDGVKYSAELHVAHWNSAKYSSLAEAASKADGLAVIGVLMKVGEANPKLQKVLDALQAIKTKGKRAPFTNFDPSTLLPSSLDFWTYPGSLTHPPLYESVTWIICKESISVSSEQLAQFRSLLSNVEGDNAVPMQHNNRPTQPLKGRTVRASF

Target: Carbonic anhydrase 1 (Homo sapiens, UniProt P00915)
Test: Inhibition of human carbonic anhydrase 1 incubated for 15 mins prior to testing by stopped-flow CO2 hydration assay

- Ki: > 10 µM
SMILES: O=c1ccc2ccc(O)cc2o1 [UMBELLIFERONE]
